Binding of CDR-mutated scFvs to a peptide of the spike HR2 region

Binding partner: SARS-CoV-2 spike HR2 peptide, sequence PDVDLGDISGINAS.

Each scFv is VH, a (GGGGS)3 linker, VL, as in the parent Ab-14, and differs from it in the CDRs of the heavy chain only.
VH: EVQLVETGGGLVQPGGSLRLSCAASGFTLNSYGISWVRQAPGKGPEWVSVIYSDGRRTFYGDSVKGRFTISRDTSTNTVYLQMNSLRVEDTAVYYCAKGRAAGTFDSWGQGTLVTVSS
VL: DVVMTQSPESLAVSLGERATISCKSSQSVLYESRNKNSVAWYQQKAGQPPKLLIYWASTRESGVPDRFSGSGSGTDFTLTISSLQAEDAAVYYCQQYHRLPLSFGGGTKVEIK

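The parent was found by panning a naive human phage display library on the peptide. In library AAYL49, one, two or three CDR residues were substituted; doubles and triples were drawn at random. In AlphaSeq, yeast of one mating type display the scFv and yeast of the other type display the target. The frequency of each diploid, read from paired DNA barcodes, reflects how well the two displayed proteins bind. A regression on co-assayed BCL2-family reference pairs converts the normalised counts of each replicate to an apparent Kd. Each pool was mated in three replicate cultures.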

Each variant is given by its three heavy chain CDRs, as the data file delimits them; those of the parent are GFTLNSYGIS, VIYSDGRRTFYGDSVK, GRAAGTFDS.
Values are apparent Kd, the geometric mean of the replicates that gave a signal; lower means stronger binding.
"no signal" means that the variant was in the library but no mating with the target was seen in any replicate; the authors take this as a sign of poor binding, and no number exists.
Empty control strains, which show no peptide, gave a signal in 15% of pairings with library AAYL49; the median was 11 µM and 95% of these signals were weaker than 680 nM. No background was subtracted.

| CDR-H1 | CDR-H2 | CDR-H3 | Kd (apparent) | detected |
|---|---|---|---|---|
| GFIVNSYGIS | VIYSDRRRTFYGDSVK | GRAAGTFDS | 17 µM | 1 of 3 |
| GFTLNSYGIS | VIYSDGRRTFMGDSVS | GRVAGTFDS | 7.6 nM | 3 of 3 |
| GFTLNSYGIS | VIYSDGSRTFYHDSGK | GRAAGTFDS | no signal | 0 of 3 |
| GFTLNSYGIS | VIYSDGRDTFYGDSVK | GQAYGTFDS | 140 µM | 3 of 3 |
| GSTLNSYGIS | VIYSDSRRTFFGDSVK | GRAAGTFDS | no signal | 0 of 3 |
| GFTLNSYGIS | VIYSVGDRTFYGDSVK | GRAAGTFDS | 15 µM | 1 of 3 |
| GFTLNSYGIS | VIYSDGRRTFYGDSVK | TCASGTFDS | 35 µM | 2 of 3 |
| GFTLNSYGIS | VIYSDGNRTFYGLSVK | GRAAGTCDS | no signal | 0 of 3 |
| GFTLNSYGIS | VIYSDGRRTFYGDTVK | GEAYGTFDS | no signal | 0 of 3 |
| GFTLNSYGCS | VISSDGRRTFWGDSVK | GRAAGTFDS | no signal | 0 of 3 |
| GFTLNSYGIS | VIYSDGRRTFYGDSHK | TRAAGTFDS | 1.7 µM | 1 of 3 |
| GFTLNSYGIS | KIYSDGRRTFFGDSPK | GRAAGTFDS | 310 nM | 1 of 3 |
| GFTLNSYGIS | VIYGDGRRTFYGDKVK | GRAAGTDDS | no signal | 0 of 3 |
| GFTLNSYGIS | VIYSDGRRTFFGDSYK | GRAAGTLDS | no signal | 0 of 3 |
| GFLLNSYGIS | VIMSDGRRTFNGDSVK | GRAAGTFDS | 72 µM | 1 of 3 |
| GFTLNSYGIS | VIEPDGRRTFYGDSVK | GRAAQTFDS | 29 µM | 1 of 3 |
| TFTLNSYGIS | VTYSDGRRTFYGQSVK | GRAAGTFDS | 4.6 µM | 1 of 3 |
| GFTLNSYTIS | VIYSDNRRTFYGDSVK | GRFAGTFDS | no signal | 0 of 3 |
| GFTLNPYGIS | EIYSDGRRTFYGDSVC | GRAAGTFDS | 2.0 µM | 1 of 3 |
| WFTLNSYGIS | VIYSDGRRTFYGDSVK | GRARGTFDS | 3.8 µM | 3 of 3 |
| GFTLNSYGIS | VIYSYGRRTFYGDSGK | GRAAGTFLS | no signal | 0 of 3 |
| GFTLNSYGIS | VIYSDGRRTFYGCAVK | GRFAGTFDS | 6.3 µM | 3 of 3 |
| GFTLNSYGIS | VIYSDGRQTFYGDHQK | GRAAGTFDS | 55 µM | 1 of 3 |
| MFTLNSYGIS | VIYSDARRTFYGDSVK | GRCAGTFDS | no signal | 0 of 3 |
| LFTLNSYGIS | VIYSDGRRMFLGDSVK | GRAAGTFDS | 1.2 µM | 1 of 3 |
| GFTLNSYGIS | VIYEDGSSTFYGDSVK | GRAAGTFDS | 470 nM | 1 of 3 |
| LFTLNSYGIS | VIYSDHRRTFYGDSTK | GRAAGTFDS | 10 µM | 2 of 3 |
| GFTLNSYGIS | VIYSFGRNTFYGDSVK | GRAAGTFQS | no signal | 0 of 3 |
| GFTLNSYGIS | VITSDGFRTFYGDSVK | GVAAGTFDS | no signal | 0 of 3 |
| GFTLNSYGCS | VIYSDGGRTDYGDSVK | GRAAGTFDS | 10 µM | 2 of 3 |
| GFTLNSIGIS | VIYSDGRRTFLGDSQK | GRAAGTFDS | no signal | 0 of 3 |
| GFKLNSNGIS | VIYSGGRRTFYGDSVK | GRAAGTFDS | no signal | 0 of 3 |
| GFTLNSYSIS | VIYMDGRRTRYGDSVK | GRAAGTFDS | 1.4 µM | 2 of 3 |
| GFTLRSYQIS | VIYSDGRRTFYGDSVK | GRAAGTFDH | 960 µM | 1 of 3 |
| GFTLNSYGIS | VILSDGRRTFSGDSVK | GRAAGTFDS | 52 µM | 1 of 3 |
| GFTLNSYGIS | VIYSDLARTFAGDSVK | GRAAGTFDS | 4.0 µM | 2 of 3 |
| GFVLNSYGIS | VIYSDGRRTFYMDSVK | PRAAGTFDS | 5.1 µM | 1 of 3 |
| GFTLNSYGIS | VIYSTGRRTMYGDSVK | GRAAGTFTS | no signal | 0 of 3 |
| GATLNSYGIS | VIYSDGRRTFYGDSVC | GRAAGTQDS | 2.5 µM | 1 of 3 |
| GFTDNSYGIS | VIYSDGRRTFYGESVK | GRAPGTFDS | 37 µM | 1 of 3 |
| GFTLNSYGIS | VIQSDGRRTFYFDSVK | GRAAGTFDM | no signal | 0 of 3 |
| GFTLNSYGIS | VIYSDGRDTFYGDSVK | GRAAGYLDS | no signal | 0 of 3 |
| GFDLNSYGIS | VIYSDGRRYFYGDKVK | GRAAGTFDS | 22 nM | 3 of 3 |
| GFTLASYGIS | PINSDGRRTFYGDSVK | GRAAGTFDS | no signal | 0 of 3 |
| GFTLNSYGIS | VIYSDGRRTHYGMSVK | GQAAGTFDS | 610 nM | 3 of 3 |
| GFTLNCYGIS | VIRSDGRRTFYGDSVK | GRAAGTFDN | no signal | 0 of 3 |
| GFTLISYGIS | VIYSHGRRTFYGDSVK | GRAAGTSDS | 10 µM | 1 of 3 |
| GPTLNSYGIS | VIYSDGRRTFYGDSVN | GRAAGTFDP | no signal | 0 of 3 |
| GFTLNSYGIE | VIYSDGRHTFYGDHVK | GRAAGTFDS | 690 nM | 1 of 3 |
| GFTLNSYGIS | VIHSDGRRTVYGDSVK | GVAAGTFDS | 6.5 µM | 1 of 3 |
| GFTLNCYGIS | VIYSDGRRTMYGDSVK | GRAAGTIDS | no signal | 0 of 3 |
| GFTLNSYGAS | VIYSDGRRTFYGDSVK | GRAAGYFDS | 51 µM | 1 of 3 |
| MFTLNSAGIS | VIYSDGRRTFYGDSVK | GYAAGTFDS | no signal | 0 of 3 |
| GFFLNSYGIS | VIYSDGRRTFFGDSVK | GCAAGTFDS | 36 µM | 3 of 3 |
| GFVLNSYGIS | VIYSDGRRTFYGPSVK | GRAAGLFDS | no signal | 0 of 3 |
| GVTLNSYGIS | VIYSDGRRTFYGDAVK | GRAQGTFDS | no signal | 0 of 3 |
| GFTLNSYGIS | VIYSDGRRTFCGDSVK | GRRAGQFDS | 2.6 µM | 2 of 3 |
| GFTLNSYGIS | VIYSDGRRTFYGDSVK | GVAAQTFDS | 33 nM | 3 of 3 |
| GFTLNSYGIS | VIYQDHRRTFYGDSVK | GRAAGTFDP | no signal | 0 of 3 |
| KFTINSYGIS | VIYSDGRRTFYGDSVK | GRAAGIFDS | 91 nM | 3 of 3 |
| GFTLNSYGPS | VIYSDGRHTFYGDSVK | GRAAGTFDS | no signal | 0 of 3 |
| GFTLNSKGIS | EIYSDGRRTFYGDSVK | GREAGTFDS | no signal | 0 of 3 |
| GFTFNSYGIS | IIYSDGRRTFYGDSVK | GRFAGTFDS | 3.5 µM | 1 of 3 |
| GFTLNSYGIS | VIVSDGRRGFYGDSVK | GRAAGTRDS | 25 µM | 2 of 3 |
| GFTLASYGIS | VIYSDGRRTFYGDSVK | GRAAGTVDS | 30 µM | 1 of 3 |
| GFTLNSYGIS | VISSDGRRTFYGDSVK | GRGAGTFFS | 230 µM | 2 of 3 |
| GFTLNSYGIP | VIYPDGRRTFYTDSVK | GRAAGTFDS | no signal | 0 of 3 |
| GFTLNSMGIS | VIYSQGRRTFYGDSVK | GRAAGTFDS | no signal | 0 of 3 |
| GFTLNSYGIS | VIYSDHRRTFYGDWVV | GRAAGTFDS | no signal | 0 of 3 |
| GFTLNSYGIS | VIESDGRDTFYGDSVK | GRAAGTFPS | 120 µM | 1 of 3 |
| GFILNSYMIS | VIYSDGRRTFVGDSVK | GRAAGTFDS | no signal | 0 of 3 |
| GFTLNSYGIS | NIYSDGIRTFDGDSVK | GRAAGTFDS | 26 µM | 1 of 3 |
| GFTLNSIGIS | VIYSDGRRTFYGDSVK | RKAAGTFDS | no signal | 0 of 3 |
| GFTLNSYGIS | VIYSDGRRTFYGDSVK | GRIAGTFSS | 12 nM | 3 of 3 |
| GFTLNSYGIS | VIYSDGRRTFFGDSVV | GRAAMTFDS | no signal | 0 of 3 |

Picked from the list: the 7 lowest averages where every replicate gave a value.

| CDR-H1 | CDR-H2 | CDR-H3 | Kd (apparent) | detected |
|---|---|---|---|---|
| GFTLNSYGIS | VIYSDGRRTFMGDSVS | GRVAGTFDS | 7.6 nM | 3 of 3 |
| GFTLNSYGIS | VIYSDGRRTFYGDSVK | GRIAGTFSS | 12 nM | 3 of 3 |
| GFDLNSYGIS | VIYSDGRRYFYGDKVK | GRAAGTFDS | 22 nM | 3 of 3 |
| GFTLNSYGIS | VIYSDGRRTFYGDSVK | GVAAQTFDS | 33 nM | 3 of 3 |
| KFTINSYGIS | VIYSDGRRTFYGDSVK | GRAAGIFDS | 91 nM | 3 of 3 |
| GFTLNSYGIS | VIYSDGRRTHYGMSVK | GQAAGTFDS | 610 nM | 3 of 3 |
| WFTLNSYGIS | VIYSDGRRTFYGDSVK | GRARGTFDS | 3.8 µM | 3 of 3 |

For reference, the parent read 4.4 nM as the reference entry and 13 µM (one replicate of three) as a member of this library.

From the AlphaSeq antibody data of Engelhart et al. 2022 (doi:10.1038/s41597-022-01779-4), copy in the FLAb collection.